Experimental data reported in PubChem BioAssay AID720553 (National Center for Advancing Translational Sciences (NCATS), 2013).
This is a selection; strong and weak results do not stand in their true shares. Calls of active or inactive are those of the source.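 How the source made its calls: active means maximum activity change below -70%; inconclusive means maximum activity change from -70% to -50%; inactive means maximum activity change above -50%.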

What follows are molecules tested on Potassium voltage-gated channel subfamily H member 2, brain isoform KCNH2 3.1 (human) (assay: qHTS for Inhibitors of KCHN2 3.1: Mutant qHTS). Settings: U2OS KCNH2 3.1, thallium flux FluxOr; stronger effect = lower value.
From the text: Many antipsychotic drugs that inhibit the neurotransmitter dopamine also bind to hERG1 channel which might help explain their antipsychotic activity but also produces cardiac side effects. The discovery of the novel KCNH2 3.1 isoform offers a potential new target for the development of antipsychotic drugs without cardiac side effects. This proposal will use a high throughput thallium flux assay developed for KCNH2 to screen compounds that modulate the activity of KCNH2 3.1. The wild type KCNH2 channel will also be screened in parallel to help define the selective modulators of this KCNH2 3.1 potassium channel. The resulting compounds will be validated in electrophysiology experiments. The availability of animal models will allow future testing in vivo for effects on memory and other aspects of animal physiology linked with psychosis. NIH Chemical Genomics Center [NCGC] NIH Molecular Libraries Probe Centers Network [MLPCN] MLPCN Grant: MH096539 Assay Submitter (PI): James Barrow, Johns Hopkins University, Lieber Institute for Brain Development
U2OS cells were resuspended in cell media containing 10% fetal calf serum (FCS) at a concentration of 2 million cells / mL. The solution was treated with the mutant (3.1) virus at 1.77 x 10^8 / mL and allowed to incubate at room temperature in the dark. After 4 hours of incubation, DMEM + 10% fetal bovine serum (FBS) was added to the cell solution. Three microliter was then dispensed into a 1536 tissue culture treated black assay plates which were incubated overnight at 37 C. Two microliter of loading buffer (HBSS + HEPES + Red40 dye quencher + FluxOr dye) was added and the assay plates were incubated for 45 min at room temperature in the dark. […] A stimulation buffer was added to the plate and the second kinetic read (2 min) was obtained. The rate constant was calculated from the kinetic reads and normalized to the positive and negative DMSO controls.
On the % scale 0 is the no-effect control and ±100 the full control effect.

Row | Structure (SMILES) | activity change
1 | Clc1n[nH]nc1-c1nn[nH][15n]1 | inactive: -17.2%
2 | O=P1(N(CCCl)CCCl)NCCC(C(F)(F)F)O1 (stereo unspecified) | inactive: 1.86%
3 | CC(C)(C)C(=O)NC(Sc1ncccn1)C(Cl)(Cl)Cl (stereo unspecified) | inactive: 19.5%
4 | CCC1=CC2Cc3nc4ccc(Cl)cc4c(N)c3C(C1)C2 (stereo unspecified) | inactive: -34%
5 | O=P1(Nc2ccccn2)COc2ccccc2OC1 | inactive: 15.6%
6 | CCOP(=O)(NC(=NC(C)c1ccccc1)NC(C)c1ccccc1)OCC (stereo unspecified) | inactive: 2.16%
7 | CCOP(=O)(Nc1ccc(C)cn1)OCC | inactive: 6.56%
8 | CN(CCCl)Cc1cc(Cl)c(NC2=NCCN2)c(Cl)c1 | inactive: -5.62%
9 | CC(C)/C=N\N=C(\N)N[N+](=O)[O-] | inactive: -19.3%
10 | CC1(CBr)Cn2c(nc3ccccc3c2=O)S1 (stereo unspecified) | inactive: 3.59%
11 | COc1ccccc1CNC(=O)COC(=O)C(O)(c1ccccc1)c1ccccc1 | inactive: -1.16%
12 | CN(C)C1(CNC(=O)c2ccc(S(C)(=O)=O)cc2)CCCCC1 | inactive: 0.508%
13 | O=C(/C=C/c1ccccc1)OC1CN2CCC1CC2 (stereo unspecified) | inactive: 7.22%
14 | CCCC1OP(=O)(Nc2ccccc2)OCC1CC (stereo unspecified) | inactive: -13.3%
15 | Cc1nn(-c2ccccc2)c2c1P(=O)(N1CCOCC1)N(C)C(c1ccccc1)=N2 (stereo unspecified) | inactive: 4.65%
16 | Cc1ccc(C(=O)OC2CN3CCC2CC3)cc1 (stereo unspecified) | inactive: 2.22%
17 | CC1CCC(C(C)C)C(OP(=O)(Nc2ccccn2)c2ccccc2)C1 (stereo unspecified) | inactive: 3.2%
18 | Nc1cccc([As](=O)(O)c2ccccc2)c1 | inactive: 4.94%
19 | O=[As](O)(c1cccs1)c1cccs1 | inactive: 13.5%
20 | Cc1ccc(OCC(=O)OC2CN3CCC2CC3)cc1 (stereo unspecified) | inactive: -4.41%
21 | NS(=O)(=O)c1cccc(NC(=O)COC(=O)C(O)(c2ccccc2)c2ccccc2)c1 | inactive: -1.95%
22 | O=P1(Nc2ccc(Br)cn2)COc2ccccc2OC1 | inactive: 1.36%
23 | O=P1(Nc2ncccn2)COc2ccccc2OC1 | inactive: 6.31%
24 | O=C(O)COc1ccc([As](=O)(O)O)cc1[N+](=O)[O-] | inactive: -7.94%
25 | Nc1ccccc1[As](=O)(O)c1ccccc1 | inactive: 14.3%
26 | CCOP1(=S)c2c(C)nn(CCC#N)c2N=C(c2ccccc2F)N1C (stereo unspecified) | inactive: 5.9%

Row | Structure (SMILES) | activity change
27 | O=P(Nc1nccs1)(Oc1ccccc1)Oc1ccccc1 | inactive: 10.4%
28 | O=P(Nc1nccs1)(c1ccccc1)c1nc2ccccc2s1 (stereo unspecified) | inactive: -23.1%
29 | CS(=O)(=O)c1cc([N+](=O)[O-])c2no[n+]([O-])c2c1 | inactive: -4.89%
30 | N#CCCN(C(=O)COC(=O)C(O)(c1ccccc1)c1ccccc1)c1ccc(F)cc1 | inactive: 5.46%
31 | CN(C(=O)Cc1ccccc1)[C@@H]1CC[C@]2(CCCO2)C[C@H]1N1CCCC1 | inactive: 3.28%
32 | CCOP1(=S)c2c(C)nn(CCC#N)c2N=C(c2ccc(F)cc2)N1C (stereo unspecified) | inactive: 3.92%
33 | O=[N+]([O-])c1ccc2c(c1)nnn2O | inactive: -3.95%
34 | CN(C)C(=O)c1cc([N+](=O)[O-])cc2c1-c1c(cc([N+](=O)[O-])cc1[N+](=O)[O-])C2=O | inactive: 0.825%
35 | CN(C(=O)Cc1ccc(Cl)c(Cl)c1)[C@H]1CC[C@@]2(CCCO2)C[C@@H]1N1CCCC1 | inactive: -22.4%
36 | NC(=O)Nc1ccc([As](=O)(O)O)cc1 | inactive: 1.26%
37 | Cc1cccc(OCC(=O)OC2CN3CCC2CC3)c1 (stereo unspecified) | inactive: 18.4%
38 | O=[As](O)(c1cccc(O)c1)c1cccc(O)c1 | inactive: 4.73%
39 | O=C(OC1CN2CCC1CC2)c1ccc(Cl)cc1 (stereo unspecified) | inactive: -4.3%
40 | O=[As](O)(O)c1cccnc1 | inactive: 10.6%
41 | COc1cc(C(=O)NCC2(N3CCOCC3)CCCCC2)cc(Cl)c1OC(C)C | inactive: -29.4%
42 | CS(=O)(=O)c1ccc(Cl)c(NC(=O)COC(=O)C(O)(c2ccccc2)c2ccccc2)c1 | inactive: -2.31%
43 | COc1cc(C2NCCC3(OCCO3)C2(C)C)cc(OC)c1OC (stereo unspecified) | inactive: 2.11%
44 | CCOP(=O)(Nc1cccc2ccccc12)OCC | inactive: 19.4%
45 | Nc1cccc2c([As](=O)(O)O)cccc12 | inactive: 0.449%
46 | Cc1ccc(NCCc2c([N+](=O)[O-])cc([N+](=O)[O-])cc2[N+](=O)[O-])cc1 | inactive: -0.997%
47 | CCCOP(=S)(Nc1nc(N)cc(=O)[nH]1)OCCC | inactive: 1.49%
48 | O=P1(N(CCCl)CCCl)Nc2ccccc2N1 | inactive: 14.5%
49 | COc1ccc2nc(NP(=O)(c3ccccc3)c3ccccc3)sc2c1 | inactive: -2.36%
50 | COc1cc(I)ccc1[As](=O)(O)O | inactive: 13.1%
51 | Cc1c2c(nc3ccccc13)SC(C(Cl)Cl)C2 (stereo unspecified) | inactive: 31.5%
52 | O=C(OC1CN2CCC1CC2)C12CC3CC(CC(C3)C1)C2 (stereo unspecified) | inactive: -22.8%

Row | Structure (SMILES) | activity change
53 | O=[N+]([O-])c1cc(Oc2ccc([N+](=O)[O-])cc2C(F)(F)F)cc([N+](=O)[O-])c1 | active: -95%
54 | COc1ccc(N/C(=N/P(=O)(N2CCOCC2)N2CCOCC2)N2CCOCC2)cc1 | inactive: 1.21%
55 | Cc1ccc(OP(=O)(Nc2ccc([N+](=O)[O-])cn2)Oc2ccc(C)cc2)cc1 | inactive: -41.6%
56 | Cc1ccc2nc3c(c(C)c2c1)CC(C(Cl)Cl)S3 (stereo unspecified) | inactive: -28.1%
57 | C[As](=O)(O)c1cccc(C(=O)O)c1 | inactive: 4.85%
58 | O=[As](O)(c1ccc(O)cc1)c1ccccc1O | inactive: -11.6%
59 | O=[N+]([O-])c1ccc(-c2cc([N+](=O)[O-])c(O)c([N+](=O)[O-])c2)cc1 | inactive: 6.96%
60 | COc1cc(C(=O)NCC2(N3CCOCC3)CCCCC2)ccc1OCC(C)C | inactive: -10.3%
61 | CC(C)NC(=O)NP(=O)(Oc1ccccc1)Oc1ccccc1 | inactive: 9.7%
62 | O=C(OC1CN2CCC1CC2)c1cccc2[nH]cnc12 (stereo unspecified) | inactive: 9.86%
63 | CCN(CC)C(=S)SC(NC=O)C(Cl)(Cl)Cl (stereo unspecified) | inactive: 6.71%
64 | ClCCSc1nnc(-c2cccnc2)o1 | inactive: 16.8%
65 | COP(=O)(OC)N1CC1c1ccccc1 (stereo unspecified) | inactive: -5.05%
66 | CCCCOc1ccc(C(=O)NCC2(N3CCCCC3)CCCCC2)cc1OC | inactive: -7.48%
67 | Cc1cc(SC(NC(=O)c2ccccc2)C(Cl)(Cl)Cl)nc(C(C)C)n1 (stereo unspecified) | inactive: 26.8%
68 | O=C(O)C(O)c1ccc(N(CCCl)CCCl)cc1 (stereo unspecified) | inactive: -35.3%
69 | CCOC(=O)Nc1ccc([As](=O)(O)O)c(O)c1 | inactive: 38.1%
70 | CC1CCNP(=O)(N(CCCl)CCCl)O1 (stereo unspecified) | inactive: -8.87%
71 | Cc1cc(SC(NC=O)C(Cl)(Cl)Cl)ncn1 (stereo unspecified) | inactive: 9.43%
72 | O=P(Nc1ccccn1)(c1cccc2ccccc12)c1cccc2ccccc12 | inactive: 2.21%
73 | O=[N+]([O-])c1ccc(Nc2ccc(Oc3ccc([N+](=O)[O-])cc3[N+](=O)[O-])cc2)c([N+](=O)[O-])c1 | active: -74.8%
74 | CCOC(=O)Nc1cccc([As](=O)(O)O)c1 | inactive: -10.5%
75 | O=C(O)C(=O)c1ccc(N(CCCl)CCCl)cc1 | active: -149%
76 | O=C(COc1ccccc1)OC1CN2CCC1CC2 (stereo unspecified) | inactive: -13.6%
77 | O=C(Nc1ccncc1[N+](=O)[O-])c1ccc([N+](=O)[O-])cc1[N+](=O)[O-] | inactive: 9.52%
78 | COP1(=S)c2c(C)nn(CCC#N)c2N=C(c2ccc(F)cc2)N1C (stereo unspecified) | inactive: 5.84%

Row | Structure (SMILES) | activity change
79 | CCC(C)N(CC(C)C)C(=S)SC(NC(C)=O)C(Cl)(Cl)Cl (stereo unspecified) | inactive: -4.94%
80 | O=C(OC1CN2CCC1CC2)c1cccc([N+](=O)[O-])c1 (stereo unspecified) | inactive: 4.58%
81 | CSc1ccc(Nc2c([N+](=O)[O-])cc([N+](=O)[O-])cc2[N+](=O)[O-])cc1 | inactive: 0.0171%
82 | CCOC(=O)c1ccc(NC(=O)C(C)(CCl)SC)cc1 (stereo unspecified) | inactive: 5.15%
83 | Cc1ccc(NP(=O)(Oc2ccccc2)Oc2ccccc2)nc1 | inactive: -1.46%
84 | O=[N+]([O-])c1cc([N+](=O)[O-])c(CCNc2ccccc2)c([N+](=O)[O-])c1 | inactive: 4.25%
85 | CCc1nc2c(n1)c1c(non1O)c1c2no[n+]1[O-] | inactive: 5.21%
86 | CC(=O)N1C2C3N(C(C)=O)C1C1N(C(C)=O)C(C(N1C(C)=O)N3C(C)=O)N2C(C)=O | inactive: -9.98%
87 | O=[N+]([O-])c1cccc2n[nH]nc12 | inactive: 5.44%
88 | COc1ccc(C2=NCC(CBr)S2)cc1 (stereo unspecified) | inactive: -6.28%
89 | CC1CCN(C(=O)Oc2c(Cl)cc(Cl)c3cccnc23)CC1 | inactive: -19%
90 | c1cc(-c2nn[nH]n2)ccc1-c1nn[nH]n1 | inactive: 3.26%
91 | CC(C)c1nc(Nc2ccccc2)n(P(=O)(N(C)C)N(C)C)n1 | inactive: -4.68%
92 | CC(C)=N/N=C(\N)N[N+](=O)[O-] | inactive: 23.2%
93 | CN(C)C(=O)OCCc1n(C)cc[n+]1C | inactive: 6.62%
94 | Nc1ccc([As](=O)(O)c2ccc(N)cc2)cc1 | inactive: 8.86%
95 | C[N+]1=C2C=CC=CC=C2SC12C([N+](=O)[O-])=CC([N+](=O)[O-])=C[C-]2[N+](=O)[O-] (stereo unspecified) | inactive: -0.49%
96 | O=C(Nc1cc([As](=O)(O)O)ccc1O)c1ccccc1 | inactive: 3.1%
97 | O=P1(N(CCCl)CCCl)OCCCS1 (stereo unspecified) | inactive: -1.06%
98 | O=C(O)CNc1ccc([As](=O)(O)O)cc1 | inactive: -2.87%
99 | COC(=O)C1(C)COP(=O)(Nc2ccccc2)OC1 (stereo unspecified) | inactive: -9.21%
100 | O=[N+]([O-])c1cccc(NC2=NCC(CBr)S2)c1 (stereo unspecified) | inactive: 17.3%
101 | O=[N+]([O-])c1ncn(CCn2ncnc2[N+](=O)[O-])n1 | inactive: -4.17%
